The values that follow are results of earlier work, collected in paper PMC11881035, “^68Ga-Labeled Glycopeptides as Effective Tools for Liver Function Imaging” (Molecular Pharmaceutics, 2025).

The conditions of data set [1]: in vivo; cited from earlier work.
Details of data set [2]: method as in PMID 38750246. The following applies: cited from earlier work.

As to “[^68Ga]Ga-NOTA-GSA: 68Ga-labeled NOTA conjugate of galactosylated human serum albumin for PET”, the “time of rapid tracer accumulation in liver (time-activity curves)” value in data set [1] is given as no more than 5 min.
Regarding “[^99mTc]Tc-GSA: galactosylated human serum albumin-based radiopharmaceutical targeting the ASGR, used for SPECT”, in data set [2] (30 min p.i. ref 21), the liver uptake is 51.3 ± 2.8 % ID/g. Moreover, the intestinal activity in data set [2] (60 min p.i. ref 21) is 9.8 ± 1.9 % ID/g.
